Assay results reported in patent US20040072753A1, “Peptides for use in the treatment of alzheimer's disease” (priority 2000, published 2004).

Tested on: Aβ 1-40
Test: purified protein, by the assay type
Conditions: pH 7.4; 30.0 °C

recombinant p34-cdc2/cyclin B1 (Homo sapiens)
Km: 5.2 µM
